This experiment has as its target T1, C5a1 (Homo sapiens, UniProt P21730).
T1 construct: the receptors for both C3a and C5a are expressed in HMDM; endogenous in cells; host or cells: human monocyte-derived macrophages (HMDM)
T1 sequence (P21730 1-350): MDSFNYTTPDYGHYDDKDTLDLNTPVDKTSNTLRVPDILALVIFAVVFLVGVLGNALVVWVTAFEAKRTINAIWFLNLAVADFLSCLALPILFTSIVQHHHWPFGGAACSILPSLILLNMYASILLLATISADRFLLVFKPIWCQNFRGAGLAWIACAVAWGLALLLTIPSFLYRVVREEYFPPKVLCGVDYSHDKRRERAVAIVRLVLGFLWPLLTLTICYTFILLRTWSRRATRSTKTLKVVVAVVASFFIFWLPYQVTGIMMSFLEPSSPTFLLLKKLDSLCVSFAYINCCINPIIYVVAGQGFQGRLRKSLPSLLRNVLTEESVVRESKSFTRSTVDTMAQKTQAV
Kind of experiment: xCELLigence, antagonism of peptide-evoked response by C5a1 antagonist PMX53 in HMDM. It counts as cell-based. As to conditions: peptides 20, 31, 47, 49, 54 at EC50 concentrations, PMX53 pre-incubated 1 h, n=3–5. As to the method:
HMDM were seeded overnight at 30,000 cells/well in 384-well E-Plates (Roche). Approximately 24 h later, HMDM media were exchanged for serum-free IMDM and equilibrated at 37 °C and 5% CO2 for 2 h prior to ligand addition. Ligands were prepared at a final DMSO concentration of 0.5% (or less) in serum-free IMDM. Antagonists PMX53 and SB 290157 were incubated for 1 h prior to agonist addition, at concentration ranges known to cause substantial inhibition of receptor activation in these cells. After agonist addition, measurements were taken continuously for ~1.5 h at 37 °C. The RTCA software was used for data analysis, with statistical analysis using GraphPad Prism 5.0c (GraphPAD Software Inc., San Diego, CA).
Using the xCELLigence, the hits were tested in the presence of both the C3a receptor and C5a1 antagonists, SB 290157 and PMX53, respectively (see Fig. 1C and D). […] The IC50 of SB 290157 in the presence of peptides 20, 31, 47, 49 and 54 is highlighted in Table 1. […] The xCELLigence activation profiles are depicted in Fig. 2, where all the peptides even at a very high dose (100 µM) have a monophasic profile more similar to that of C3a than of C5a. Despite some being partial agonists at the C3a receptor, none of the peptides were able to antagonize C3a activation of HMDM when tested at 10 µM (data not shown).

We go through one substance from paper PMC4263610, “Derivation of ligands for the complement C3a receptor from the C-terminus of C5a” (European Journal of Pharmacology, 2014).

Turning to “AcPhe[Lornithine-Pro-D-cyclohexylalanine-Trp-Arg] (sidechain bridge or staple) [PMX53, cyclic C5a1 antagonist]”, the “change of peptide-evoked cell index in the presence of PMX53” value is given as “No change”.
